Source: patent publication US20250248999A1 (published 2025)

Conditions: dogs; some mid- and high-dose animals

## N#Cc1ccc(O[C@H]2CC[C@H](NC(=O)c3ccc(N4CCC(CN5CCN(c6cc7c(cc6F)C(=O)N(C6CCC(=O)NC6=O)C7=O)CC5)CC4)nn3)CC2)cc1Cl (stereo partly shown) [Compound (I-g)]
  liver function enzymes: Reversible liver function enzyme elevation, which is considered non-adverse
